In PMC9895061, “Celastrol suppresses colorectal cancer via covalent targeting peroxiredoxin 1” (Signal Transduction and Targeted Therapy, 2023):

Tests used:
PRDX1 = target: T1, PRDX1 (Homo sapiens, UniProt Q06830); assay: Determination of Kinact and Ki for inhibition of PRDX1's peroxidase activity; type: biochemical
T1 sequence (Q06830 1-199): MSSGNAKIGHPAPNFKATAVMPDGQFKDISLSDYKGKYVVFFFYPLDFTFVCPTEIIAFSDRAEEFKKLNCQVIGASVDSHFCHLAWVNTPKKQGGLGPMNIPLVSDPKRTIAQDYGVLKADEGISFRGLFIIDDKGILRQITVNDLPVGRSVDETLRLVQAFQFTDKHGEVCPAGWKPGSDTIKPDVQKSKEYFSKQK

HCT116 cells = assay: Cell viability by trypan blue staining, HCT116; conditions: 1, 2 μM, 24 h
SW620 cells = assay: Cell viability by trypan blue staining, SW620; conditions: 1, 2 μM, 24 h

CC1=C(O)C(=O)C=C2C1=CC=C1[C@@]2(C)CC[C@@]2(C)[C@@H]3C[C@](C)(C(=O)O)CC[C@]3(C)CC[C@]12C [Celastrol]
kinact (PRDX1): 0.00333 s⁻¹ | cell viability at high concentrations, HCT116 (in words) (HCT116 cells): significantly decreased cell viability | cell viability at high concentrations, SW620 (in words) (SW620 cells): significantly decreased cell viability
